Assay results as given in US8609678B2, “Reverse amide compounds as protein deacetylase inhibitors and methods of use thereof” (Acetylon Pharmaceuticals, priority 2010, dated 2013).

Amino acid sequences for entries named in this document (tags omitted). A change or cut given only in a name is not applied to a line headed by its entry.
UniProt O15379: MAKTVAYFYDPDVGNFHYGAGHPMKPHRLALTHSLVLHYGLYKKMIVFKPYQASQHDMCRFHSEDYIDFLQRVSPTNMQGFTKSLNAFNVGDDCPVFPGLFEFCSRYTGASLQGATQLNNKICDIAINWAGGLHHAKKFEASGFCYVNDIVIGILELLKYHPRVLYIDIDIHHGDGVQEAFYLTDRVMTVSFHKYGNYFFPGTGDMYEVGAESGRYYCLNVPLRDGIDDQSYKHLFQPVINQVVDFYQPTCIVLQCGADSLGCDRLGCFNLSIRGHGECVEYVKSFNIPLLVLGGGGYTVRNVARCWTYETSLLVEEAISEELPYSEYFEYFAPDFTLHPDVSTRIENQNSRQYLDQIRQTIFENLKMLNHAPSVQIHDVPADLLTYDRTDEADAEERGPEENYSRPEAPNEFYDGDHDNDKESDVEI
UniProt Q9UBN7: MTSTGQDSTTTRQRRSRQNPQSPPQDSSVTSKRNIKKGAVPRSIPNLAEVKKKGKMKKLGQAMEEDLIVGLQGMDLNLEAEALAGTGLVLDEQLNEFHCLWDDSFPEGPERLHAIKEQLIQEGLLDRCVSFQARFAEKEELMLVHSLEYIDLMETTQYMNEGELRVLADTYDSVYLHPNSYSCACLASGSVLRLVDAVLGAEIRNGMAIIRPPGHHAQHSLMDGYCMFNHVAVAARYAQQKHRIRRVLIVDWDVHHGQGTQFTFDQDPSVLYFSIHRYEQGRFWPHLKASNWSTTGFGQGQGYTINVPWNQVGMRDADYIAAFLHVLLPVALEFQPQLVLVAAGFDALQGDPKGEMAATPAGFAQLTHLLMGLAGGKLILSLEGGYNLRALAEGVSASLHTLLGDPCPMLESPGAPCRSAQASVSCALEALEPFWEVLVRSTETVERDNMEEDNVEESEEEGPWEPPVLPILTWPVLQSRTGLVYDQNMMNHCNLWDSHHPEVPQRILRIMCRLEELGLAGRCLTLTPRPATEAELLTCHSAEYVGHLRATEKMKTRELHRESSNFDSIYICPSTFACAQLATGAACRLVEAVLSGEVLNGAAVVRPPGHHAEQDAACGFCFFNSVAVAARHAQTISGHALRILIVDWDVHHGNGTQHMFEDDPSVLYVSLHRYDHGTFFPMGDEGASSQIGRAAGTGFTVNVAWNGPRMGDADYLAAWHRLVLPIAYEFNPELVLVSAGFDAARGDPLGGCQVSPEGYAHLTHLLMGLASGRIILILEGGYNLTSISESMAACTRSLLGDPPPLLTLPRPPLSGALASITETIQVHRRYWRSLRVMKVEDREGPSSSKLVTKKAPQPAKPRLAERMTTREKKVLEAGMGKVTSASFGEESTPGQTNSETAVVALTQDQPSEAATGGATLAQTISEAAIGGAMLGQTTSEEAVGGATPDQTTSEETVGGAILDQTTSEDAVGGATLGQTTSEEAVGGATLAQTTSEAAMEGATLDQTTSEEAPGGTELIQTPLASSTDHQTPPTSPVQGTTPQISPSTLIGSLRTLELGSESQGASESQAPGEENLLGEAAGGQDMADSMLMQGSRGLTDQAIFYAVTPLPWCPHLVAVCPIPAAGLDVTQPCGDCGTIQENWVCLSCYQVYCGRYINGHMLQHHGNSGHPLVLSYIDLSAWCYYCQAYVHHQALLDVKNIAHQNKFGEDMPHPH

Experiments:
[1] = target: HDAC3 (Homo sapiens (Human), UniProt O15379); experiment: HDAC enzyme assay, HDAC3; type: biochemical; details: 0.08 ng/ml enzyme, 17 μM tripeptide substrate
[2] = target: HDAC6 (Homo sapiens (Human), UniProt Q9UBN7); experiment: HDAC enzyme assay, HDAC6; details: read-out: IC50(nM) HDAC6; 2 ng/ml enzyme, 14 μM tripeptide substrate

SMILES | IC50 [1] [nM] | IC50 [2] [nM]
O=C(CCCCCCNC(=O)c1cnc(N(CCO)CCc2c[nH]c3ccccc23)nc1)NO [2-((2-(1H-indol-3-yl)ethyl)(2-hydroxyethyl)amino)-N-(7-(hydroxyamino)-7-oxoheptyl)pyrimidine-5-carboxamide] | 35 | 3
COC(c1ccc(F)cc1)(c1ccc(C(=O)N(C)CCCCCCC(=O)NO)cc1)c1ccccn1 (centres unmarked) [4-((4-fluorophenyl)(methoxy)(pyridin-2-yl)methyl)-N-(7-(hydroxyamino)-7-oxoheptyl)-N-methylbenzamide] | 361 | 23
O=C(CCCCCCNC(=O)c1ccc(C2(c3ccccc3)OC(=O)c3ccccc32)cc1)NO (centres unmarked) [N-(7-(hydroxyamino)-7-oxoheptyl)-4-(3-oxo-1-phenyl-1,3-dihydroisobenzofuran-1-yl)benzamide] | 153 | 11
O=C(CCCCCCNC(=O)c1cnc(N2CCc3ccccc3C2)nc1)NO [2-(3,4-dihydroisoquinolin-2(1H)-yl)-N-(7-(hydroxyamino)-7-oxoheptyl)pyrimidine-5-carboxamide] | – | 3
O=C(CCCCCCNC(=O)c1cnc(N2CCC[C@H]2CO)nc1)NO [(S)-N-(7-(hydroxyamino)-7-oxoheptyl)-2-(2-(hydroxymethyl)pyrrolidin-1-yl)pyrimidine-5-carboxamide] | – | 7
CN(CCCCCCC(=O)NO)C(=O)c1ccc(C(C)(O)c2ccc(F)cc2)cc1 (centres unmarked) [4-(1-(4-fluorophenyl)-1-hydroxyethyl)-N-(7-(hydroxyamino)-7-oxoheptyl)-N-methyl benzamide] | – | 23
O=C(CCCCCCNC(=O)c1ccc(N(c2ccccc2)c2ncccn2)cc1)NO [N-(7-(hydroxyamino)-7-oxoheptyl)-4-(phenyl(pyrimidin-2-yl)amino)benzamide] | – | 3
CN(CCCCCCC(=O)NO)C(=O)c1ccc(N(c2ccccc2)c2ncccn2)cc1 [N-(7-(hydroxyamino)-7-oxoheptyl)-N-methyl-4-(phenyl(pyrimidin-2-yl)amino)benzamide] | – | 18
CN(c1ccccc1)c1ncc(C(=O)NCCCCCCC(=O)NO)cn1 [N-(7-(hydroxyamino)-7-oxoheptyl)-2-(methyl(phenyl)amino)pyrimidine-5-carboxamide] | – | 6
O=C(CCCCCCNC(=O)c1cccc(C(O)(c2ccccn2)c2ccccn2)c1)NO [N-(7-(hydroxyamino)-7-oxoheptyl)-3-(hydroxydipyridin-2-ylmethyl)benzamide] | 285 | 41
Cc1cccc(C)c1Nc1cccc(C(=O)NCCCCCCC(=O)NO)c1 [3-(2,6-dimethylphenylamino)-N-(7-(hydroxyamino)-7-oxoheptyl)benzamide] | – | 10
CC(C)c1cccc(C(C)C)c1Nc1ncc(C(=O)N(C)CCCCCCC(=O)NO)cn1 [2-(2,6-diisopropylphenylamino)-N-(7-(hydroxyamino)-7-oxoheptyl)-N-methylpyrimidine-5-carboxamide] | – | 51

More lines, in order of falling IC50 [2], values ahead:

IC50 [1] [nM] | IC50 [2] [nM] | SMILES
– | 21 | CN(c1ccc(C(=O)NCCCCCCC(=O)NO)cc1)c1cnccn1 [N-(7-(hydroxyamino)-7-oxoheptyl)-4-(methyl(pyrazin-2-yl)amino)benzamide]
– | 20 | Cc1cccnc1N(c1ccccc1)c1ccc(C(=O)NCCCCCCC(=O)NO)cc1 [N-(7-(hydroxyamino)-7-oxoheptyl)-4-((3-methylpyridin-2-yl)(phenyl)amino) benzamide]
873 | 17 | COC(c1ccc(C(=O)N(C)CCCCCCC(=O)NO)cc1)(c1cc(F)cc(F)c1)c1cc(F)cc(F)c1 [4-(bis(3,5-difluorophenyl)(methoxy)methyl)-N-(7-(hydroxyamino)-7-oxoheptyl)-N-methylbenzamide]
– | 7 | O=C(CCCCCCNC(=O)c1cnc(N2CCOC(CO)C2)nc1)NO (centres unmarked) [N-(7-(hydroxyamino)-7-oxoheptyl)-2-(2-(hydroxymethyl)morpholino)pyrimidine-5-carboxamide]
– | 5 | CN1CCN(c2ncc(C(=O)NCCCCCCC(=O)NO)cn2)C(c2ccccc2)C1 (centres unmarked) [N-(7-(hydroxyamino)-7-oxoheptyl)-2-(4-methyl-2-phenylpiperazin-1-yl)pyrimidine-5-carboxamide]
– | 4 | O=C(CCCCCCNC(=O)c1cnc(N2CCN(c3ccccc3)CC2)nc1)NO [N-(7-(hydroxyamino)-7-oxoheptyl)-2-(4-phenylpiperazin-1-yl)pyrimidine-5-carboxamide]
74 | 3 | O=C(CCCCCCNC(=O)c1ccc(C(O)(c2ccccc2F)c2ccccc2F)cc1)NO [4-(bis(2-fluorophenyl)(hydroxy)methyl)-N-(7-(hydroxyamino)-7-oxoheptyl)benzamide]
– | 2 | CN(c1ccc(C(=O)NCCCCCCC(=O)NO)cc1)c1c(F)cccc1F [4-((2,6-difluorophenyl)(methyl)amino)-N-(7-(hydroxyamino)-7-oxoheptyl) benzamide]
